From patent publication US8338348B2, “Skin cleansing compositions with polyglycerol esters and hydrophobically modified polymers” (Johnson & Johnson Consumer Companies, Inc., priority 2010, dated 2012)

Tests used:
[1] = system: Madin-Darby canine kidney (MDCK) cells; assay: Trans-Epithelial Permeability Test (TEP Test); format: cell-based; conditions: Table 5 surfactant system
Procedure: The following Trans-Epithelial Permeability (“TEP”) and Tensiometry tests are used in the instant methods and in the following Examples. In particular, as described above, the TEP test is used to determine when a composition is a reduced irritation composition according to the present invention.
Irritation to the eyes and/or skin expected for a given formulation is measured in accordance with the Invittox Protocol Number 86, the “Trans-epithelial Permeability (TEP) Assay” as set forth in Invittox Protocol Number 86 (May 1994), incorporated herein by reference. In general, the ocular and/or skin irritation potential of a product can be evaluated by determining its effect on the permeability of a cell layer, as assessed by the leakage of fluorescein through the layer. Monolayers of Madin-Darby canine kidney (MDCK) cells are grown to confluence on microporous inserts in a 24-well plate containing medium or assay buffer in the lower wells. The irritation potential of a product is evaluated by measuring the damage to the permeability barrier in the cell monolayer following a 15 minute exposure to dilutions of the product. Barrier damage is assessed by the amount of sodium fluorescein that has leaked through to the lower well after 30 minutes, as determined spectrophotometrically. […]

[2] = system: EpiDerm™ Skin Model; assay: Skin Irritancy Potential Test via in vitro skin equivalents (IL-1α release); format: cell-based, human; conditions: Table 12; vs C30
Text: The EpiDerm™ Skin Model provided by MatTek Corporation was used in this study. The target cells are epithelial, derived from human skin. The test materials are applied directly to the culture surface, at air interface, so that undiluted and/or end use dilutions can be tested directly.
The experimental design used in this study consisted of a definitive assay to determine the release of one cytokine. Where tissue viability is not decreased by 50% as compared to the negative control tissue (as measured by MTT reduction), the inflammatory potential is then measured by the synthesis/release of the cytokine IL-1α.
In the treatment phase six skin equivalents are used for each diluted test product, individual results are averaged to provide overall response. 100 μl is applied to each equivalent for 1 hour of diluted product (10% dilution) exposure followed by 5 rinses of Ca, Mg Free PBS solution. Each Tissue is placed in a 6 well tray with assay medium for each rinse and returned to incubation for 24 hours. Following incubation tissues are assessed for cytokine responses of IL-1α.

Polyglyceryl-10 Laurate [Polyglycerol-10 Laurate]
PG-10 Laurate concentration at plateau of mildness improvement (TEP Test) [1]: around 0.5% | effect of PGE on mildness of the surfactant system [2]: improve the mildness
